pIC50: −log10 of the molar value.
Columns and labels:
[1] = molecular target: EGFR L858R (Homo sapiens, UniProt P00533, L858R); assay: Biochemical EGFR inhibition assay (Caliper mobility shift), EGFR L858R; conditions: read-out: Enz EGFR_L858R IC50; 1.0 mM ATP or ATP Km; room temperature (25° C.)
[2] = molecular target: intracellular phosphorylation of EGFR (Tyr1068) in PC-9 cells (Ex19Del) (Homo sapiens, UniProt P00533, DEL746-750); assay: PC-9 pEGFR AlphaLISA assay; type: cell-based; conditions: read-out: Ext pEGFR_PC-9 Ex19Del IC50, 4 hours compound incubation
[3] = molecular target: EGFR (d746-750) (Homo sapiens, UniProt P00533, DEL746-750); assay: Biochemical EGFR inhibition assay (Caliper mobility shift), EGFR (d746-750); conditions: read-out: Enz EGFR_Exon19-del746-750 IC50; 1.0 mM ATP or ATP Km; room temperature (25° C.)

Chains of the proteins cited; added tags and fusions are not shown. Lines headed by an entry give the natural chain unless they say otherwise; changes in a name come on top. Residues count along the entry.
UniProt P00533, 25-1210 L858R limits assumed: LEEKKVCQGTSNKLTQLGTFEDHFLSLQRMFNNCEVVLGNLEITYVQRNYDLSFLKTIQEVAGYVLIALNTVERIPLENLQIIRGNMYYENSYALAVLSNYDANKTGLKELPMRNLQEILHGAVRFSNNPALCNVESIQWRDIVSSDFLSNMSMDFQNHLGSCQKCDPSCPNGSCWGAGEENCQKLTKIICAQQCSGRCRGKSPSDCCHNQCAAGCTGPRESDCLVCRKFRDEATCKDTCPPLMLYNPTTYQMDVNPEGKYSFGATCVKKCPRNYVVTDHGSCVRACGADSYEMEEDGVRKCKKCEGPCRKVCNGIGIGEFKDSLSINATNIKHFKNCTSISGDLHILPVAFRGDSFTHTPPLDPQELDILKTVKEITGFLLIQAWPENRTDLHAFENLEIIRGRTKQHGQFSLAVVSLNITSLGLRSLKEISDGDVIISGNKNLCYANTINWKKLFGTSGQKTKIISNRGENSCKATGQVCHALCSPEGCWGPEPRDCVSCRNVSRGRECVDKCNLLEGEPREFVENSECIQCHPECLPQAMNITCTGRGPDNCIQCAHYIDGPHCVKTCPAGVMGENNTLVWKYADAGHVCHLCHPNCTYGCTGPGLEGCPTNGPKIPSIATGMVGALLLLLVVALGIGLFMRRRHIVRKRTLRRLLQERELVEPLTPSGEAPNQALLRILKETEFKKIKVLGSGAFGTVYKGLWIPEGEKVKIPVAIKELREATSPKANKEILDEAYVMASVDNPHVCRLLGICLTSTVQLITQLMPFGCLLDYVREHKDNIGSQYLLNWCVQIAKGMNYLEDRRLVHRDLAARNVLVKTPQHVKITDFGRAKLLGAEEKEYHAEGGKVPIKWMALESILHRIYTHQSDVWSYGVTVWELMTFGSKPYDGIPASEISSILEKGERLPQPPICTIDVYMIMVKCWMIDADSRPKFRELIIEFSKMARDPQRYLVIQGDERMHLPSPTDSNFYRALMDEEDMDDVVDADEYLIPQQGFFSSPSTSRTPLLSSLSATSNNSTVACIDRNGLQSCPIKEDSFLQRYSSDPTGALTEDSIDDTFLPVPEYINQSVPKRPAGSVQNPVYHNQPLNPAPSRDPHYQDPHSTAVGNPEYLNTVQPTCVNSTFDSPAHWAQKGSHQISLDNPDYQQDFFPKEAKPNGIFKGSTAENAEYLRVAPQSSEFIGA

Measured: pIC50

C[C@@H](Oc1cc(-c2cnn(C)c2)cc2ncnc(Nc3ccc4ncccc4c3F)c12)C1CCOC1 (single isomer, unassigned)
> 8.00: all assays above

Reference: patent US12662465B2, “EGFR inhibitors” (Blueprint Medicines Corporation, priority 2021, dated 2026)
